From patent US20200375975A1, “Treatment of Renal Cell Carcinoma with Lenvatinib and Everolimus” (Eisai R&D Management Co., Ltd., priority 2016, published 2020)

System: patients with unresectable advanced or metastatic renal cell carcinoma (RCC)
Assay: Same Phase 2 trial: adverse reactions (CTCAE grades), once daily dosing;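 further: adverse events are any unwanted sign, symptom, abnormal lab finding or disease occurring in time with treatment, whether or not drug-related, and CTCAE grade expresses their severity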
Details: combo 18 mg+5 mg; LENVIMA 24 mg; everolimus 10 mg

| Compound | Dental and oral infections, All Grades | Dental and oral infections, Grades 3-4 | Fatigue, Grades 3-4 | Headache, All Grades | Peripheral edema, Grades 3-4 | Pyrexia, Grades 3-4 |
| --- | --- | --- | --- | --- | --- | --- |
| CO[C@H]1C[C@@H]2CC[C@@H](C)[C@@](O)(O2)C(=O)C(=O)N2CCCC[C@H]2C(=O)O[C@H]([C@H](C)C[C@@H]2CC[C@@H](OCCO)[C@H](OC)C2)CC(=O)[C@H](C)/C=C(\C)[C@@H](O)[C@@H](OC)C(=O)[C@H](C)C[C@H](C)/C=C/C=C/C=C/1C [Everolimus, (1R,9S,12S,15R,16E,18R,19R,21R,23 S,24E,26E,28E,30S,32S,35R)-1,18-dihydroxy-12-{(1R)-2-[(1 S,3R,4R)-4-(2-hydroxyethoxy)-3-methoxycyclohexyl]-1-methylethyl}-19,30-dimethoxy-15,17,21,23,29,35-hexamethyl-11,36-dioxa-4-aza-tricyclo[30.3.1.0^4,9]hexatriaconta-16,24,26,28-tetraene-2,3,10,14,20-pentaone] | 0% | 0% | 2% | 10% | 0% | 2% |
| COc1cc2nccc(Oc3ccc(NC(=O)NC4CC4)c(Cl)c3)c2cc1C(N)=O [LENVIMA ®, 4-[3-chloro-4-(N′-cyclopropylureido)phenoxy]-7-methoxyquinoline-6-carboxamide methanesulfonate] | 6% | 2% | 10% | 27% | 0% | 0% |
